Assay: Leakage experiments: ethanol-induced permeabilization of LUVs
Assay type: physicochemical
Conditions: DSPC/Chol/PEG-CerC14/DODAP liposomes in 40% ethanol
Experimental: Leakage experiments. Ethanol-induced permeabilization of LUVs was measured at different temperatures and as a function of the size (MW) of the entrapped solute. Calcein was used as a low molecular weight marker for leakage and FITC-dextran (MW 19500) as a high molecular weight marker. Leakage of calcein entrapped at self-quenching concentrations was followed by monitoring the dequenching of the calcein fluorescence. LUVs were prepared by hydration of a lipid film with an aqueous solution containing 75 mM calcein and 5 mM HEPES adjusted to pH 7.5 by addition of sodium hydroxide, followed by 5 freeze/thaw cycles and extrusion through 2 stacked 100 nm filters (10 passes). In the case of […] extrusion was performed at 60° C. […] The fluorescence at 520 nm was measured (excitation wavelength […], long-pass filter at 430 nm) with a Perkin Elmer LS50 Fluorimeter (Perkin Elmer) after 5 min of incubation at the corresponding temperature. […] The loss of FITC-dextran from liposomes exposed to 40% ethanol was determined after removal of released FITC-dextran by size exclusion chromatography on a Sepharose CL4B column (1.5×15 cm). The FITC/LRh-PE ratio was measured before and after addition of ethanol. FITC and LRh-PE fluorescence were measured at 515 nm and 590 nm with the excitation wavelength set to 485 nm and 560 nm, respectively.

Question: For FITC-dextran, which release from liposomes is on record?
Answer: less than 10%

Reference: patent US7094423B1, “Methods for preparation of lipid-encapsulated therapeutic agents” (INEX Pharmaceuticals Corp., priority 1999, dated 2006)
